The record followed here is ChEMBL document CHEMBL4840326, “Discovery of an M-Substituted N-Cyclopropylmethyl-7α-phenyl-6,14-endoethanotetrahydronorthebaine as a Selective, Potent, and Orally Active κ-Opioid Receptor Agonist with an Improved Central Nervous System Safety Profile” (2021).

Chains of the proteins cited; added tags and fusions are not shown.
UniProt P33535, whole entry: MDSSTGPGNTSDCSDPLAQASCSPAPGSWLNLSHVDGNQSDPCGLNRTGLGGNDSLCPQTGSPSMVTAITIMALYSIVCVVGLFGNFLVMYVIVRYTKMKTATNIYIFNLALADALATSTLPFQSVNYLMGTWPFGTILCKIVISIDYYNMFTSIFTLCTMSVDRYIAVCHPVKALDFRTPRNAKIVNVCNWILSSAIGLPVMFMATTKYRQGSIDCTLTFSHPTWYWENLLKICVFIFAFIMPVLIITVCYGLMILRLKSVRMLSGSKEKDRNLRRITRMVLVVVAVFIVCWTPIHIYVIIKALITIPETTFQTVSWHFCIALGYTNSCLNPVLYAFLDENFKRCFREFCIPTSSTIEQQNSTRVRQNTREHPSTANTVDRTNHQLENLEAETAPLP
UniProt P33533, whole entry: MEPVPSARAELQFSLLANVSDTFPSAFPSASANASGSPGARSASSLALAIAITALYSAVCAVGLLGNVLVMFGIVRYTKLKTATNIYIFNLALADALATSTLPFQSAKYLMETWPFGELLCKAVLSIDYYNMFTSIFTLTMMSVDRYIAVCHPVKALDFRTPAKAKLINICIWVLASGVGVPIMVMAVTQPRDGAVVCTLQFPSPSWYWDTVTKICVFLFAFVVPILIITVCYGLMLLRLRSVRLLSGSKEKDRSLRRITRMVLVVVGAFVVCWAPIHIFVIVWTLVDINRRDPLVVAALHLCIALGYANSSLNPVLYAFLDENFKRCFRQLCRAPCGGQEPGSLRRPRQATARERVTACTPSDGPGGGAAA
UniProt P41145, whole entry: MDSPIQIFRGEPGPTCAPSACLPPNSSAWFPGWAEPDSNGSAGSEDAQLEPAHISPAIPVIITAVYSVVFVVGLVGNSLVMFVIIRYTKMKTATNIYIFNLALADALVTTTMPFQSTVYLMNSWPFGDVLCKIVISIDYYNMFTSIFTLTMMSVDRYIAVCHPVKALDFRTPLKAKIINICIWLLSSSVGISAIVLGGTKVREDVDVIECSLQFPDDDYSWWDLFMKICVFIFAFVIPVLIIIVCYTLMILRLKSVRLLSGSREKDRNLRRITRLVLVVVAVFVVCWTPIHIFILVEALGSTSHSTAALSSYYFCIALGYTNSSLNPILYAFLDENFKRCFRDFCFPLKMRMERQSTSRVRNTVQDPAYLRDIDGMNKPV

In one experiment the target is Mu-type opioid receptor (Rattus norvegicus, UniProt P33535). Briefly: Displacement of [3H]DAMGO from rat mu opioid receptor expressed in CHO cell membrane measured after 30 mins by liquid scintillation counting method.
In experiment [1] the target is Delta-type opioid receptor (Rattus norvegicus, UniProt P33533). Kind of experiment: Displacement of [3H]DPDPE from rat delta opioid receptor expressed in CHO cell membrane measured after 30 mins by liquid scintillation counting method.
The target in experiment [2] is Kappa-type opioid receptor (Homo sapiens, UniProt P41145). Briefly: Displacement of [3H]U69,593 from human kappa opioid receptor expressed in CHO cell membrane measured after 30 mins by liquid scintillation counting method. On the technique in general: Displacement assays read how much labelled ligand stays bound in the presence of the test substance.

Structures are written as SMILES. pKi: −log10 of the molar value.

As to `COc1ccc2c3c1O[C@H]1[C@@]4(OC)CC[C@@]5(C[C@@H]4c4cccc(NCc6cccc(C)c6)c4)[C@@H](C2)N(CC2CC2)CC[C@]315`, the pKi was 7.61 at Mu-type opioid receptor, 6.23 in experiment [1] and 7.25 in experiment [2].
For `COc1ccc(CNc2cccc([C@H]3C[C@@]45CC[C@]3(OC)[C@@H]3Oc6c(O)ccc7c6[C@@]34CCN(CC3CC3)[C@@H]5C7)c2)cc1`, in that order: 9.53, 10.14 and 10.80.
For `COc1ccc2c3c1O[C@H]1[C@@]4(OC)CC[C@@]5(C[C@@H]4c4cccc(NCc6ccc(C)cc6)c4)[C@@H](C2)N(CC2CC2)CC[C@]315`, in that order: 7.69, 5.56 and 7.34.

Broadly, the pKi is the Ki on a negative log10 scale, so that one unit is a factor of ten. Read a low pKi as a high Ki.
